Experimental data as given in the supplement of paper PMC5908809.

Assays:
DERL-7 (IL-2 2.5 ng/mL) [1] = assay: relative IC50 (inflection point of fitted viability curve, relative to fitted max inhibition); higher = less sensitive; conditions: 72 h
Protocol: (§1)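 Drug sensitivity and resistance testing: 5 concentrations over a 10,000-fold range, 72 h at 37 °C, viability by CellTiter-Glo normalised to DMSO and benzethonium chloride controls. IC50 is the inflection point of a logistic fit (min fixed at 0, max fitted), so it is relative to the fitted maximal inhibition. Kept only where fitted max inhibition is at least 50%.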

SNK-6 (IL-2 2.5 ng/mL) [2] = assay: as above; conditions: 72 h
Protocol: as §1

KAI3 (IL-2 2.5 ng/mL) [3] = assay: as above; conditions: 72 h
Protocol: as §1

YT (IL-2 2.5 ng/mL) [4] = assay: as above; conditions: 72 h
Protocol: as §1

[5] = system: normal NK cells expanded with K562-aAPC; assay: percent inhibition of viability; higher = more inhibition; conditions: 72 h, IL-2 2.5 ng/mL
Protocol: (§2)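 Drug sensitivity and resistance testing on K562-aAPC-expanded normal NK cells: 5 concentrations (10-fold steps over a 10,000-fold range), 72 h at 37 °C, viability by CellTiter-Glo normalised to DMSO and benzethonium chloride controls; DSS from the fitted curve.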

[6] = system: normal NK cells expanded with K562-aAPC; assay: drug sensitivity score (DSS) (DSS units); higher = more sensitive; extreme values may be limits of the assay; conditions: 72 h; IL-2 2.5 ng/mL
Protocol: as §2

[7] = system: normal primary NK cells, pool 2 (3 donors) (IL-2 2.5 ng/mL); assay: as above; conditions: 72 h
[8] = system: normal primary NK cells, pool 1 (3 donors) (IL-2 2.5 ng/mL); assay: as above; conditions: 72 h
DERL-7 (IL-2 2.5 ng/mL) [9] = assay: as above; conditions: 72 h
KHYG-1 (IL-2 2.5 ng/mL) [10] = assay: as above; conditions: 72 h
SNK-6 (IL-2 2.5 ng/mL) [11] = assay: as above; conditions: 72 h
NK-YS (IL-2 2.5 ng/mL) [12] = assay: as above; conditions: 72 h
NKL (IL-2 2.5 ng/mL) [13] = assay: as above; conditions: 72 h
KAI3 (IL-2 2.5 ng/mL) [14] = assay: as above; conditions: 72 h
[15] = system: normal primary NK cells, pool 3 (3 donors) (IL-2 2.5 ng/mL); assay: as above; conditions: 72 h
YT (IL-2 2.5 ng/mL) [16] = assay: as above; conditions: 72 h
NK-92 (IL-2 2.5 ng/mL) [17] = assay: as above; conditions: 72 h
IMC-1 (IL-2 20 ng/mL) [18] = assay: as above; conditions: 72 h
[19] = system: normal primary NK cells, pool 1 (3 donors), resting (IL-2 0 ng/mL); assay: as above; conditions: 72 h
[20] = system: normal primary NK cells, pool 2 (3 donors) (IL-2 2.5 ng/mL); assay: percent inhibition of viability; higher = more inhibition; conditions: 72 h
[21] = system: normal primary NK cells, pool 1 (3 donors) (IL-2 2.5 ng/mL); assay: as above; conditions: 72 h
DERL-7 (IL-2 2.5 ng/mL) [22] = assay: as above; conditions: 72 h
KHYG-1 (IL-2 2.5 ng/mL) [23] = assay: as above; conditions: 72 h
SNK-6 (IL-2 2.5 ng/mL) [24] = assay: as above; conditions: 72 h
NK-YS (IL-2 2.5 ng/mL) [25] = assay: as above; conditions: 72 h
NKL (IL-2 2.5 ng/mL) [26] = assay: as above; conditions: 72 h
KAI3 (IL-2 2.5 ng/mL) [27] = assay: as above; conditions: 72 h
[28] = system: normal primary NK cells, pool 3 (3 donors) (IL-2 2.5 ng/mL); assay: as above; conditions: 72 h
YT (IL-2 2.5 ng/mL) [29] = assay: as above; conditions: 72 h
NK-92 (IL-2 2.5 ng/mL) [30] = assay: as above; conditions: 72 h
IMC-1 (IL-2 20 ng/mL) [31] = assay: as above; conditions: 72 h
[32] = system: normal primary NK cells, pool 1 (3 donors), resting (IL-2 0 ng/mL); assay: as above; conditions: 72 h

NCc1ccc(OCCCc2sc(-c3ccc4c(c3)/C(=N/Nc3nc5ccccc5s3)CCC4)nc2C(=O)O)cc1 [WEHI-539]
Conditions | relative IC50 [nM]
DERL-7 (IL-2 2.5 ng/mL) [1] | > 2500
KAI3 (IL-2 2.5 ng/mL) [3] | 124
SNK-6 (IL-2 2.5 ng/mL) [2] | 83.3
YT (IL-2 2.5 ng/mL) [4] | 70.2

NCc1ccc(OCCCc2sc(-c3ccc4c(c3)/C(=N/Nc3nc5ccccc5s3)CCC4)nc2C(=O)O)cc1 [WEHI-539] (max concentration tested 2500 nM)
percent inhibition of viability [%]
Conditions | 0.25 nM | 2.5 nM | 25 nM | 250 nM | 2500 nM
DERL-7 (IL-2 2.5 ng/mL) [22] | -1.03 | -0.51 | -3.83 | -4.69 | -10.2
IMC-1 (IL-2 20 ng/mL) [31] | -3.28 | -0.97 | 1.6 | 14.1 | 23
KAI3 (IL-2 2.5 ng/mL) [27] | -1.85 | 4.39 | 14.3 | 67.9 | 102
KHYG-1 (IL-2 2.5 ng/mL) [23] | -5.3 | -0.64 | -2.33 | 9.02 | 23.4
NK-92 (IL-2 2.5 ng/mL) [30] | -5.07 | -4.42 | -11.9 | 16.2 | 23.8
NK-YS (IL-2 2.5 ng/mL) [25] | 0.35 | -3.08 | -2.14 | 6.38 | 5.63
NKL (IL-2 2.5 ng/mL) [26] | 13 | 1.4 | 7.39 | 11.9 | 27.7
SNK-6 (IL-2 2.5 ng/mL) [24] | -5.1 | 4.12 | 22.4 | 69.1 | 94
YT (IL-2 2.5 ng/mL) [29] | 5.47 | 1.83 | 8.88 | 64.8 | 70.8
[5] | 6.75 | 1.83 | 6.37 | 11.6 | 16.9
[20] | -8.42 | -8.85 | 2.42 | 22.6 | 33.6
[21] | -2.1 | -1.63 | -4.82 | 7.31 | -1.82
[28] | -11.2 | -12 | -2.42 | 5.98 | 13.1
[32] | -29.9 | -2.37 | -4.67 | 19.2 | -15.6

Conditions | drug sensitivity score
DERL-7 (IL-2 2.5 ng/mL) [9] | 0.89
IMC-1 (IL-2 20 ng/mL) [18] | 2.11
KAI3 (IL-2 2.5 ng/mL) [14] | 14.8
KHYG-1 (IL-2 2.5 ng/mL) [10] | 1.94
NK-92 (IL-2 2.5 ng/mL) [17] | 2.55
NK-YS (IL-2 2.5 ng/mL) [12] | 0
NKL (IL-2 2.5 ng/mL) [13] | 2.2
SNK-6 (IL-2 2.5 ng/mL) [11] | 15.7
YT (IL-2 2.5 ng/mL) [16] | 13.2
[6] | 0.83
[7] | 4.17
[8] | 0
[15] | 0.44
[19] | 0
